IC50 data for four compounds are collected here from ChEMBL document CHEMBL2311500, “Identification and characterization of small molecules as potent and specific EPAC2 antagonists” (J Med Chem, 2013).

Chains of the proteins cited; added tags and fusions are not shown. Lines headed by an entry give the natural chain unless they say otherwise; changes in a name come on top.
UniProt Q8WZA2: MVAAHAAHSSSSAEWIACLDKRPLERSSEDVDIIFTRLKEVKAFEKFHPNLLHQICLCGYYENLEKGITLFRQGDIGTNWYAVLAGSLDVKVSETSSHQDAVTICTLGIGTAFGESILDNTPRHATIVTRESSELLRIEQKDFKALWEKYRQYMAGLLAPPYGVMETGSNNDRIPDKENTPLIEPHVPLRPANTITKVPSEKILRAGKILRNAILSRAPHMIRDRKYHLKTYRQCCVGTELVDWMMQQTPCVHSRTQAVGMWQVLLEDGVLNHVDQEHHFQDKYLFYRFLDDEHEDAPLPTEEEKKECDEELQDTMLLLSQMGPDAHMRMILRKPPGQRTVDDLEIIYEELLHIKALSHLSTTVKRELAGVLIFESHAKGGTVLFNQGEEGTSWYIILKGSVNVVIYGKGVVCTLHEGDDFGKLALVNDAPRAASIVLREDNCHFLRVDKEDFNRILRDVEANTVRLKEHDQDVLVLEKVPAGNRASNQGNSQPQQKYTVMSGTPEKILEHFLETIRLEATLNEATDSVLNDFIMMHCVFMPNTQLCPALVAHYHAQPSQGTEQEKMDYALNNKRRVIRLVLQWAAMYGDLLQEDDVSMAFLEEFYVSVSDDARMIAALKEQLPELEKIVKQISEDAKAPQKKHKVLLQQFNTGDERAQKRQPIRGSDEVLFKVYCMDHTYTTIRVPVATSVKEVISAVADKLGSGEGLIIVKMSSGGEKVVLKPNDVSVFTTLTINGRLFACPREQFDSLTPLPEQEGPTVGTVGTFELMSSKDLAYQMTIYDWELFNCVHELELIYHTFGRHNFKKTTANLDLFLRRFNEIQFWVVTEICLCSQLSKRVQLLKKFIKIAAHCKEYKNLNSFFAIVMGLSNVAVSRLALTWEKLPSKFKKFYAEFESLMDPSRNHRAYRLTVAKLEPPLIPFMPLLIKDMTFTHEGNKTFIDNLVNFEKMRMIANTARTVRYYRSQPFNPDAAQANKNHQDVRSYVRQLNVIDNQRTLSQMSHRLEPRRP

Molecules are shown by their SMILES.

In this test the target is Rap guanine nucleotide exchange factor 4 (Homo sapiens, UniProt Q8WZA2). The test can be described thus: Antagonist activity at recombinant EPAC2 (unknown origin) assessed 8-NBD-cAMP substrate fluorescence intensity by substrate competing assay.
The term IC50 denotes the concentration that inhibits the measured activity by half. In the case of `Cc1cc(C)c(S(=O)(=O)n2cc(C)cc2C)c(C)c1`, the IC50 worked out at 300 nM.
The result for `CCc1cccn1S(=O)(=O)c1c(C)cc(C)cc1C` reads 500 nM.
The result for `CCc1cccn1S(=O)(=O)c1ccc(Cl)cc1` reads 8000 nM; that for `Cc1ccc(S(=O)(=O)c2c(C)cc(C)cc2C)cc1`, 500 nM.
